Reference: patent US20240000946A1, “CARBONIC ANHYDRASE INHIBITORS SYNTHESIZED ON INTERCONNECTING LINKER CHAINS” (VILNIUS UNIVERSITY, priority 2020, published 2024)

Amino acid sequences for entries named in this document (tags omitted). Residues count along the entry.
UniProt P35218, 39-296 limits assumed: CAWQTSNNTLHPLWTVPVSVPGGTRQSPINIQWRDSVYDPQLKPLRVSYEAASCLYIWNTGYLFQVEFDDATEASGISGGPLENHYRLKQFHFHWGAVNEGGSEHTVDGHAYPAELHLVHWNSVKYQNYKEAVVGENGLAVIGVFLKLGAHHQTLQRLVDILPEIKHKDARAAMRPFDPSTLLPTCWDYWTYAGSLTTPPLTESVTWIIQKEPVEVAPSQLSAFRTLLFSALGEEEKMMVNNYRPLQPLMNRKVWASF
UniProt Q9Y2D0, 37-296 limits assumed: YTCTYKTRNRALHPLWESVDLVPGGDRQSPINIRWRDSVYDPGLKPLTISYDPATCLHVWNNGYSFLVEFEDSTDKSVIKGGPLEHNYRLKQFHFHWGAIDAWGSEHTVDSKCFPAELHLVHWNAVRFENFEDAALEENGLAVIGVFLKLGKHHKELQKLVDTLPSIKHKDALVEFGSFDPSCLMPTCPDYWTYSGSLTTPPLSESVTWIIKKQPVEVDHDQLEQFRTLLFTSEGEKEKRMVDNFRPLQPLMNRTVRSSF
UniProt P07451, 3-259 limits assumed: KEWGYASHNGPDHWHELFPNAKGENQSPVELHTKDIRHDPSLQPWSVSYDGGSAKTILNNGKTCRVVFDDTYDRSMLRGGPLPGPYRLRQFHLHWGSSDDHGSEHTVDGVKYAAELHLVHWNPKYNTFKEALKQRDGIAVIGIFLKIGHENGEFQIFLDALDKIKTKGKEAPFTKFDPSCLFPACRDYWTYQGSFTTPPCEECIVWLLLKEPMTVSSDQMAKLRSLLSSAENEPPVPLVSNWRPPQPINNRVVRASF
UniProt O43570, 30-289 limits assumed: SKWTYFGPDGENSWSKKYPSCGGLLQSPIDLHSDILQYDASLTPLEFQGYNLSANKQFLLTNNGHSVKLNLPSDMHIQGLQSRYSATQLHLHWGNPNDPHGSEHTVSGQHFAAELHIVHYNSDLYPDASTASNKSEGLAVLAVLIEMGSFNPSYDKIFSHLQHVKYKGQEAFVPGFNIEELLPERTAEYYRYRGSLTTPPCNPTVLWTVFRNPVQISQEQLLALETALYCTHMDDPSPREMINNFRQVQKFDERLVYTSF
UniProt P43166, 5-262 limits assumed: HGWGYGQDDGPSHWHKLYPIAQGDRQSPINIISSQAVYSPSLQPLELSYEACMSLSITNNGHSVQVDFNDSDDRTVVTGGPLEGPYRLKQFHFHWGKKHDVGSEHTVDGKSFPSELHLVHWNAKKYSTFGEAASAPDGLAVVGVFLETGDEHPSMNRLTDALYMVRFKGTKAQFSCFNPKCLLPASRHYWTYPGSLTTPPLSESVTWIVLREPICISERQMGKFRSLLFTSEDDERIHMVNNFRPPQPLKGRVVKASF
UniProt Q8N1Q1, 4-261 limits assumed: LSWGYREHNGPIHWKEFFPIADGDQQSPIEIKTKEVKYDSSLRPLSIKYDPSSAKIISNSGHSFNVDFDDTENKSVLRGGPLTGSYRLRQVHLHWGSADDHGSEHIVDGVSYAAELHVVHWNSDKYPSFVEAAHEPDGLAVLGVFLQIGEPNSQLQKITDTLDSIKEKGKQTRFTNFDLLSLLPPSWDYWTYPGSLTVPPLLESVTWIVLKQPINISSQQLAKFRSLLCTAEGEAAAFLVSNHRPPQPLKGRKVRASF
UniProt P22748, 21-285 limits assumed: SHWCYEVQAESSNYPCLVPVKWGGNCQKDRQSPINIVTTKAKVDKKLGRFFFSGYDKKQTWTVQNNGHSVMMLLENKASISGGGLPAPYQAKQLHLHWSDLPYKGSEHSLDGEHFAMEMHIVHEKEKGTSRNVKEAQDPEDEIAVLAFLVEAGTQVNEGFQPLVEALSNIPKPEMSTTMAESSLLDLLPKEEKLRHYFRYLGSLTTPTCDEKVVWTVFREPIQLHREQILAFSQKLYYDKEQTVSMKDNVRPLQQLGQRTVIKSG
UniProt P23280, 21-278 limits assumed: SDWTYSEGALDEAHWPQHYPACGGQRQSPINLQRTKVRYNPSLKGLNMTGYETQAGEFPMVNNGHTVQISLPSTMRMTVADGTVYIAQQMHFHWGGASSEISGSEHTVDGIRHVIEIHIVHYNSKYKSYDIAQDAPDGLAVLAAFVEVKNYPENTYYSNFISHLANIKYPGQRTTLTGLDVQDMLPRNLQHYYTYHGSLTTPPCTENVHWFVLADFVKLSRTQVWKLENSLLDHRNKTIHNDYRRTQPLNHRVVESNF
UniProt P00915, 4-261 limits assumed: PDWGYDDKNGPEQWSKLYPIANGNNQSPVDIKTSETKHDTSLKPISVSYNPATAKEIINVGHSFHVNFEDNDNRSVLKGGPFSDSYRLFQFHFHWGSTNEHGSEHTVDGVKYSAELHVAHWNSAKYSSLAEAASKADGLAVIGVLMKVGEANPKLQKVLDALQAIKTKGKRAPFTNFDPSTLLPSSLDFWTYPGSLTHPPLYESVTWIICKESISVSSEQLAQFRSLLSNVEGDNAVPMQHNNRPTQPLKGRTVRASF
UniProt Q9ULX7, 20-278 limits assumed: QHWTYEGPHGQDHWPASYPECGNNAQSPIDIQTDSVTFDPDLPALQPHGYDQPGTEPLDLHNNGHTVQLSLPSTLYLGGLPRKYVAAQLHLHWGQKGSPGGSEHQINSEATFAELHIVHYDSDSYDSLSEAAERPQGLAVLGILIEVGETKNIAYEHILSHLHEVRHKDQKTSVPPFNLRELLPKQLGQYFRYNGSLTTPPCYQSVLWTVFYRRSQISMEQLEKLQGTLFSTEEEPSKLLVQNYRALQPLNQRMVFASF

Legend:
Assay type in all cases: binding
Settings in all cases: 37° C., pH 7.0
[1] = biological target: T1, human recombinant CA VA (Homo sapiens, UniProt P35218); test: Fluorescent thermal shift assay (FTSA), CA VA
T1 construct: recombinant human carbonic anhydrase catalytic domains using the fluorescent thermal shift assay; made in house

[2] = biological target: T2, human recombinant CA VB (Homo sapiens, UniProt Q9Y2D0); test: Fluorescent thermal shift assay (FTSA), CA VB
T2 construct: recombinant human carbonic anhydrase catalytic domains using the fluorescent thermal shift assay; made in house

[3] = biological target: T3, human recombinant CA III (Homo sapiens, UniProt P07451); test: Fluorescent thermal shift assay (FTSA), CA III
T3 construct: recombinant human carbonic anhydrase catalytic domains using the fluorescent thermal shift assay; made in house

[4] = biological target: T4, human recombinant CA XII (Homo sapiens, UniProt O43570); test: Fluorescent thermal shift assay (FTSA), CA XII
T4 construct: recombinant human carbonic anhydrase catalytic domains using the fluorescent thermal shift assay; made in house

[5] = biological target: T5, human recombinant CA VII (Homo sapiens, UniProt P43166); test: Fluorescent thermal shift assay (FTSA), CA VII
T5 construct: recombinant human carbonic anhydrase catalytic domains using the fluorescent thermal shift assay; made in house

[6] = biological target: T6, human recombinant CA II (Homo sapiens, UniProt P00918); test: Fluorescent thermal shift assay (FTSA), CA II
T6 construct: recombinant human carbonic anhydrase catalytic domains using the fluorescent thermal shift assay; made in house

[7] = biological target: T7, human recombinant CA XIII (Homo sapiens, UniProt Q8N1Q1); test: Fluorescent thermal shift assay (FTSA), CA XIII
T7 construct: recombinant human carbonic anhydrase catalytic domains using the fluorescent thermal shift assay; made in house

[8] = biological target: T8, human recombinant CA IV (Homo sapiens, UniProt P22748); test: Fluorescent thermal shift assay (FTSA), CA IV
T8 construct: recombinant human carbonic anhydrase catalytic domains using the fluorescent thermal shift assay; made in house

[9] = biological target: T9, human recombinant CA VI (Homo sapiens, UniProt P23280); test: Fluorescent thermal shift assay (FTSA), CA VI
T9 construct: recombinant human carbonic anhydrase catalytic domains using the fluorescent thermal shift assay; made in house

[10] = biological target: T10, human recombinant CA I (Homo sapiens, UniProt P00915); test: Fluorescent thermal shift assay (FTSA), CA I
T10 construct: recombinant human carbonic anhydrase catalytic domains using the fluorescent thermal shift assay; made in house

[11] = biological target: T11, human recombinant CA IX (Homo sapiens, UniProt Q16790); test: Fluorescent thermal shift assay (FTSA), CA IX
T11 construct: recombinant human carbonic anhydrase catalytic domains using the fluorescent thermal shift assay; made in house

[12] = biological target: T12, human recombinant CA XIV (Homo sapiens, UniProt Q9ULX7); test: Fluorescent thermal shift assay (FTSA), CA XIV
T12 construct: recombinant human carbonic anhydrase catalytic domains using the fluorescent thermal shift assay; made in house

Row | Molecule | Kd [1] | Kd [2] | Kd [3] | Kd [4] | Kd [5] | Kd [6] | Kd [7] | Kd [8] | Kd [9] | Kd [10] | Kd [11] | Kd [12]
1 | 4arm-PEG5000-tetraacetamide, tetrakis-(N-[2-[2-(cyclooctylamino)-3,5,6-trifluoro-4-sulfamoyl-phenyl]sulfonylethyl]) [Compound E20-3] | 2500 nM | 52 nM | > 200000 nM | 63 nM | 63 nM | 1000 nM | 34 nM | 810 nM | 330 nM | 16000 nM | 0.009 nM | 40 nM
2 | NS(=O)(=O)c1c(F)c(F)c(S(=O)(=O)CCNC(=O)CCOCCOCCOCCOCCOCCOCCOCCOCCOCCOCCOCCOCCOCCC(=O)NCCS(=O)(=O)c2c(F)c(F)c(S(N)(=O)=O)c(F)c2NC2CCCCCCC2)c(NC2CCCCCCC2)c1F [AZ19-3-2, N-[2-[2-(cyclooctylamino)-3,5,6-trifluoro-4-sulfamoyl-phenyl]sulfonylethyl]-3-[2-[2-[2-[2-[2-[2-[2-[2-[2-[2-[2-[2-[3-[2-[2-(cyclooctylamino)-3,5,6-trifluoro-4-sulfamoyl-phenyl]sulfonylethylamino]-3-oxo-propoxy]ethoxy]ethoxy]ethoxy]ethoxy]ethoxy]ethoxy]ethoxy]ethoxy]ethoxy]ethoxy]ethoxy]ethoxy]propanamide] |  |  |  |  |  |  |  |  | 330 nM |  |  | 
3 | Bis(3-aminopropyl)PEG1500, N,N′-bis(4-[(4-cyclohexylsulfanyl-3-sulfamoyl-benzoyl)amino]butanoyl) [LS20-1-5] | ≥ 200000 nM | ≥ 200000 nM | ≥ 200000 nM | ≥ 200000 nM | ≥ 200000 nM | ≥ 200000 nM | ≥ 200000 nM | ≥ 200000 nM | ≥ 200000 nM | ≥ 200000 nM | 1100 nM | > 200000 nM
4 | Bis(3-aminopropyl)PEG1500, N,N′-bis(4-cyclohexylsulfanyl-3-sulfamoyl-benzoyl) [LS20-2-5] | ≥ 200000 nM | ≥ 200000 nM | ≥ 200000 nM | ≥ 200000 nM | ≥ 200000 nM | ≥ 200000 nM | ≥ 200000 nM | 23000 nM | > 200000 nM | ≥ 200000 nM | 1900 nM | ≥ 200000 nM
5 | Bis-(N′-[2-[2-(cyclooctylamino)-3,5,6-trifluoro-4-sulfamoyl-phenyl]sulfonylethyl]butanediamide)-mPEG2000 [Compound E20-1] | 8300 nM | 39 nM | ≥ 200000 nM | 39 nM | 48 nM | 400 nM | 20 nM | 120 nM | 270 nM | 8200 nM | 0.004 nM | 49 nM
6 | N′-[2-[2-(cyclooctylamino)-3,5,6-trifluoro-4-sulfamoyl-phenyl]sulfonylethyl]-N-(2-O-methyl-mPEG75o)butanediamide [Compound E20-2] | 8200 nM | 58 nM | ≥ 200000 nM | 49 nM | 53 nM | 350 nM | 23 nM | 820 nM | 560 nM | 8500 nM | 0.1 nM | 100 nM
